One may read the inhibition as the change of the read-out against control, counted positive when it falls.

Protein sequences, listed by entry. Tags and fused reporters are not part of them.
UniProt Q4J6C6, whole entry: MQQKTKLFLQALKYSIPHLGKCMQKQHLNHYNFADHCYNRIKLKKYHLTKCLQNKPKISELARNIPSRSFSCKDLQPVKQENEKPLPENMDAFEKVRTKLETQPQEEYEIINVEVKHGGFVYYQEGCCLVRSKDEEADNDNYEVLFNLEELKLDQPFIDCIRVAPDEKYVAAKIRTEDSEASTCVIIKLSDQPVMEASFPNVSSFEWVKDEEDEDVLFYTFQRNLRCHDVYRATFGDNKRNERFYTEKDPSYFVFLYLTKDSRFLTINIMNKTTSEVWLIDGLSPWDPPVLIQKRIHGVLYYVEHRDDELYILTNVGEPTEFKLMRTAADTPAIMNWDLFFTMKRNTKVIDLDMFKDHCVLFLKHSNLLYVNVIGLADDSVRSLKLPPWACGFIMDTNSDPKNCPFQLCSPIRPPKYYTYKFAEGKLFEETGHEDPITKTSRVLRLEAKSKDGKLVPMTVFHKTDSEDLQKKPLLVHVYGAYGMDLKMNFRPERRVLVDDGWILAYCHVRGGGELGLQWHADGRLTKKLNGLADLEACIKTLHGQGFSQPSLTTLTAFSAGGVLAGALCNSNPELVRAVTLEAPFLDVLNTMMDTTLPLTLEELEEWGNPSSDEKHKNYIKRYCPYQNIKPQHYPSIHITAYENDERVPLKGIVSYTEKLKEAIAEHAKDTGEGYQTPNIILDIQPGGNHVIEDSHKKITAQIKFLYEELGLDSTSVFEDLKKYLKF

SMILES strings stand for the structures. The list shows a part of the results, in another mix than the full data. Some structures show a salt or complex split into parts, the way the source records it. The source made the active and inactive calls. Rule as the data show it: active = inhibition above about 43%; inactive = the rest.

In this experiment the target is Prolyl endopeptidase-like (Homo sapiens) (UniProt Q4J6C6). Nature of the experiment: PREPL enzyme inhibitors, primary screen, biochemical, fluorescence polarization (AID 2751).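 Also: 0% = enzyme with DMSO and 100% = wells lacking enzyme.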 Conditions: recombinant PREPL, fluorescence polarization activity-based probe; at 5.96 µM; stronger effect = higher value. Background: Fluorescence polarisation rises when a labelled molecule tumbles more slowly, as on binding a larger partner.
As to `CP(=S)(Nn1cnnc1)Oc1ccccc1` (stereo not drawn), the inhibition was inactive: -6.51%. For `CP(=O)(Nc1ccccc1Br)Oc1ccccc1` (stereo not drawn), the inhibition is inactive: -2.48%. In the case of `COc1ccccc1OP(C)(=O)Nc1ccccc1` (stereo not drawn) it was inactive: -0.81%; in that of `CP(=O)(Oc1ccccc1)OC(c1ccccc1)C(F)(F)F` (stereo not drawn), inactive: 3.11%. In the case of `Cc1cccc(C)c1OP(C)(=O)Nc1ccc(SC(F)(F)F)cc1` (stereo not drawn), the inhibition was inactive: -8.07%.

Consider `CP(=O)(Nc1ccc(SC(F)(F)F)cc1)Oc1ccc(Cl)cc1` (stereo not drawn), for which the inhibition was inactive: -21.6%. `Cc1cc(C)cc(OP(C)(=O)Nc2ccc(SC(F)(F)F)cc2)c1` (stereo not drawn): the inhibition was inactive: -0.73%. In the case of `CCc1ccc(OP(C)(=O)N2CCN(c3ccc([N+](=O)[O-])cc3)CC2)cc1` (stereo not drawn) it was inactive: -63.7%; in that of `CP(=O)(NC(=O)Nc1ccccc1)Oc1ccccc1` (stereo not drawn), inactive: 0.2%; in that of `CCOC(=O)c1ccc(NP(C)(=O)Oc2ccc(OC)cc2)cc1` (stereo not drawn), inactive: -3.27%. In the case of `O=[N+]([O-])c1cc([N+](=O)[O-])c(O)c([N+](=O)[O-])c1.c1ccc(Oc2ccncc2)cc1` it was inactive: 4.18%; in that of `CCOP(C)(=S)SCC(=O)NC(C)C(=O)O` (stereo not drawn), inactive: -0.56%. In the case of `CP(=O)(Nc1ccccn1)Oc1ccc(Cl)cc1` (stereo not drawn) it was inactive: 23.3%.

As to `CCN(CC)CCCOC(=O)C(O)(c1ccccc1)c1ccccc1`, the inhibition is inactive: 12.1%. In the case of `O=[N+]([O-])c1cc([N+](=O)[O-])c(Nc2cccnc2)c([N+](=O)[O-])c1` it was inactive: 31.3%; in that of `O=[N+]([O-])c1ccc2c(c1)C=Nc1ccccc1O2`, inactive: 6.09%; in that of `Cc1cccc(C)c1OP(C)(N)=O` (stereo not drawn), inactive: -4.11%. In the case of `CC(C)(C)c1ccc(OP(C)(=O)Nc2ccc(SC(F)(F)F)cc2)cc1` (stereo not drawn) it was inactive: -14.3%; in that of `Cc1ccc(NP(C)(=O)Oc2ccccc2)c(C)c1` (stereo not drawn), inactive: -0.51%; in that of `COc1ccccc1OP(C)(=O)Nc1ccc(C)cc1` (stereo not drawn), inactive: 2.37%. In the case of `CCOC(=O)c1ccc(NP(C)(=O)Oc2ccccc2)cc1` (stereo not drawn) it was inactive: 1.65%. Turning to `Cc1cc(C)cc(OP(C)(N)=O)c1` (stereo not drawn), the inhibition is inactive: 6.94%.

Take `COc1ccc(OP(C)(=O)Nc2cccc(F)c2)cc1` (stereo not drawn): the inhibition is inactive: -7.94%. In the case of `COc1ccccc1OP(C)(=O)Nc1cc(Cl)ccc1C` (stereo not drawn) it was inactive: -11%.

In the case of `O=C(O)c1cccc(Nc2c([N+](=O)[O-])cc([N+](=O)[O-])cc2[N+](=O)[O-])c1`, the inhibition is inactive: 2.97%. On to `CC1=NCCc2c1[nH]c1ccccc21.O=[N+]([O-])c1cc([N+](=O)[O-])c(O)c([N+](=O)[O-])c1`, for which the inhibition is active: 56.1%. In the case of `COc1ccccc1OP(C)(=O)Nc1cccc(Br)c1` (stereo not drawn) it was inactive: -10.9%; in that of `CCOC(=O)c1ccc(NP(C)(=O)Oc2cc(C)cc(C)c2)cc1` (stereo not drawn), inactive: 3.95%; in that of `Cc1cc(C)cc(OP(C)(=O)Nc2ccc(C)cc2C)c1` (stereo not drawn), inactive: -2.92%. For the compound `Cc1ccc(C)c(NP(C)(=O)Oc2ccccc2)c1` (stereo not drawn), the inhibition was inactive: -5.73%. In the case of `CP(=O)(Nc1cccc(Br)c1)Oc1ccccc1` (stereo not drawn) it was inactive: -7.84%; in that of `Cc1cc(C)cc(OP(C)(=O)Nc2ccccn2)c1` (stereo not drawn), inactive: 1.42%; in that of `O=[N+]([O-])c1cc([N+](=O)[O-])c(-n2nnc3ccccc32)c([N+](=O)[O-])c1`, inactive: -3.61%. In the case of `O=[N+]([O-])c1cc([N+](=O)[O-])c(-c2cnn(-c3ccccc3)c2)c([N+](=O)[O-])c1` it was inactive: 14%.

Turning to `Cc1nc2ccc3ccccc3c2s1.O=[N+]([O-])c1cc([N+](=O)[O-])c(O)c([N+](=O)[O-])c1`, the inhibition was inactive: -9.08%. Consider `CCOC(=O)C(CC)C1=NC(C)(C)Cc2ccccc21.O=[N+]([O-])c1cc([N+](=O)[O-])c(O)c([N+](=O)[O-])c1` (stereo not drawn), for which the inhibition is inactive: -0.86%. In the case of `O=[N+]([O-])c1cc([N+](=O)[O-])c(Nc2nnnn2CCO)c([N+](=O)[O-])c1` it was inactive: 3.04%.

In the case of `CC1=C2N=C(C=C3N=C(C(C)=C4[N-][C@@](C)([C@@H]5N=C1[C@](C)(CCC(=O)NC[C@@H](C)OP(=O)([O-])O[C@H]1[C@@H](O)[C@@H](n6cnc7cc(C)c(C)cc76)O[C@@H]1CO)[C@H]5CC(N)=O)[C@@](C)(CC(N)=O)[C@@H]4CCC(N)=O)[C@@](C)(CC(N)=O)[C@@H]3CCC(N)=O)C(C)(C)[C@@H]2CCC(N)=O.[C-]#N.[Co+3]`, the inhibition is inactive: 4.09%. Regarding `COc1ccccc1OP(C)(=O)Nc1c(C)cccc1C` (stereo not drawn), the inhibition is inactive: -0.75%. In the case of `CN1CCCCC1COC(=O)C1(O)c2ccccc2CCc2ccccc21` (stereo not drawn) it was inactive: -2.92%; in that of `CP(=O)(Nc1ccc(SC(F)(F)F)cc1)Oc1ccccc1` (stereo not drawn), inactive: -10.8%; in that of `CCCOc1ccc(NP(C)(=O)Oc2ccc(Cl)cc2)cc1` (stereo not drawn), inactive: -10.7%. In the case of `COc1ccc(OP(C)(=O)Nc2cccc(Br)c2)cc1` (stereo not drawn) it was inactive: -19.1%.

Consider `CN(C)CCOC(=O)C(O)(c1ccccc1)C1CCCCC1` (stereo not drawn), for which the inhibition was inactive: 15.7%. In the case of `COc1ccc(NP(C)(=O)Oc2ccccc2OC)cc1` (stereo not drawn) it was inactive: 5.28%; in that of `O=[N+]([O-])c1cc([N+](=O)[O-])c(NCC2CCS(=O)(=O)C2)c([N+](=O)[O-])c1` (stereo not drawn), inactive: 2.98%. In the case of `CP(=O)(Nc1ccc(SC(F)(F)F)cc1)Oc1ccc(F)cc1` (stereo not drawn) it was inactive: -8.52%; in that of `CCOP(C)(=S)SCC(=O)NC(C)(CC)C(=O)O` (stereo not drawn), inactive: 12.2%; in that of `CP(=O)(Nc1ccc2c(c1)OCCO2)Oc1ccccc1` (stereo not drawn), inactive: -3.5%.

Turning to `Cc1ccccc1NP(C)(=O)Nc1ccccc1C`, the inhibition is inactive: 10.9%.

Regarding `CP(=O)(Nc1ccccc1F)Oc1ccccc1` (stereo not drawn), the inhibition is inactive: -0.75%. In the case of `CC(C)c1ccc(OP(C)(=O)Nc2ccc(SC(F)(F)F)cc2)cc1` (stereo not drawn), the inhibition is inactive: -11.9%.

For `O=C(OC1CN2CCC1CC2)c1ccc([N+](=O)[O-])cc1` (stereo not drawn), the inhibition was inactive: 0.21%. In the case of `O=C(OCCN1CCN(CCOCc2ccccc2)CC1)C(O)(c1ccccc1)c1ccccc1` it was inactive: 17.1%. In the case of `COc1ccc2c(c1O)-c1c(O)c(OC)cc3c1[C@H](C2)[N+](C)(C)CC3.O=[N+]([O-])c1cc([N+](=O)[O-])c([O-])c([N+](=O)[O-])c1[O-]` it was inactive: -0.34%; in that of `CCOC(=O)c1ccc(NP(C)(=O)Oc2ccc(F)cc2)cc1` (stereo not drawn), inactive: 3.22%. Take `COc1ccc(OP(C)(=O)Nc2ccc(SC(F)(F)F)cc2)cc1` (stereo not drawn): the inhibition was inactive: -13.5%. In the case of `CCN(CC)CCCOC(=O)C(O)(c1ccccc1)C1CCCCC1` (stereo not drawn) it was inactive: -1.58%; in that of `CP(=O)(Nc1ccccc1)Oc1ccc(F)cc1` (stereo not drawn), inactive: 4.51%; in that of `O=[N+]([O-])c1cc([N+](=O)[O-])c(OC2CCCCC2O)c([N+](=O)[O-])c1` (stereo not drawn), inactive: -7.6%. In the case of `CCCCCOc1ccc(NP(C)(=O)Oc2ccc(Cl)cc2Cl)cc1` (stereo not drawn) it was inactive: 4.84%. In the case of `Cc1cc(C)cc(OP(C)(=O)Nc2cccc(C(F)(F)F)c2)c1` (stereo not drawn) it was inactive: -5.12%. `COc1ccccc1OP(C)(=O)Nc1ccc(C)c(C)c1` (stereo not drawn): the inhibition was inactive: 3.35%. In the case of `COc1ccc(OP(C)(=O)Nc2ccccc2Br)cc1` (stereo not drawn) it was inactive: 3.44%.

Regarding `Cc1nc2ccc3ccccc3c2o1.O=[N+]([O-])c1cc([N+](=O)[O-])c(O)c([N+](=O)[O-])c1`, the inhibition is inactive: -7.67%.

For `CP(=O)(OCCOc1ccccc1)OCCOc1ccccc1`, the inhibition was inactive: -13.3%. For the compound `CP(=O)(Nc1ccc(Cl)cc1Cl)Oc1ccccc1` (stereo not drawn), the inhibition is inactive: -3.22%. In the case of `COc1ccccc1OP(C)(=O)Nc1ccc(Br)cc1` (stereo not drawn) it was inactive: 5.15%; in that of `COc1ccc(OP(C)(=O)Nc2ccccn2)cc1` (stereo not drawn), inactive: -1.55%. In the case of `CN(C)CCOC(=O)C(O)(c1ccccc1)C1CCCC1` (stereo not drawn) it was inactive: -0.8%. In the case of `O=[N+]([O-])c1cc([N+](=O)[O-])c(Nc2ccccn2)c([N+](=O)[O-])c1` it was inactive: 13.8%. As to `Cc1c(NP(C)(=O)Oc2ccc(C(C)C)cc2)c(=O)n(-c2ccccc2)n1C` (stereo not drawn), the inhibition is inactive: 2.14%. Consider `COc1ccccc1OP(C)(=O)Nc1ccc(C)cc1C` (stereo not drawn), for which the inhibition is inactive: 6.45%. In the case of `CP(=O)(Nc1ccccn1)Oc1ccccc1` (stereo not drawn) it was inactive: -0.28%; in that of `CCc1ccc(OP(C)(=O)O)cc1`, inactive: 0.29%. In the case of `COc1ccc(OP(C)(=O)Nc2ccc(Br)cc2)cc1` (stereo not drawn) it was inactive: -17.2%. On to `CCN(CC)CC(O)COC(=O)C(O)(c1ccccc1)C1CCCCC1` (stereo not drawn), for which the inhibition is inactive: -1.51%. In the case of `O=C(OCCCN1CCCC1)C(O)(c1ccccc1)C1CCCCC1` (stereo not drawn) it was inactive: 1.74%. In the case of `COc1ccccc1OP(C)(=O)Nc1c(C)n(C)n(-c2ccccc2)c1=O` (stereo not drawn) it was inactive: 7.76%; in that of `CCc1ccc(OP(C)(=O)Nc2cccnc2)cc1` (stereo not drawn), inactive: -2.42%; in that of `CP(=O)(Oc1ccccc1)N1CCOC1=O` (stereo not drawn), inactive: -4.55%.

For the compound `CC(C)(C)c1ccc(OP(C)(=O)O)cc1`, the inhibition was inactive: 13.1%.

Consider `COc1ccccc1OP(C)(=O)Nc1ccccc1Br` (stereo not drawn), for which the inhibition was inactive: -1.89%. In the case of `CP(=O)(Nc1ccc(Cl)cc1)Oc1ccc(F)cc1` (stereo not drawn) it was inactive: 0.25%; in that of `CN(C)C(=O)c1c([N+](=O)[O-])cc([N+](=O)[O-])cc1[N+](=O)[O-]`, inactive: -3.32%; in that of `Nc1ccc2c(ccc3cccnc32)n1.O=[N+]([O-])c1cc([N+](=O)[O-])c(O)c([N+](=O)[O-])c1`, inactive: 17.7%. `CCOC(=O)c1ccc(NP(C)(=O)Oc2ccc(Cl)cc2)cc1` (stereo not drawn): the inhibition was inactive: -17.8%.

Consider `CP(=O)(OC12CC3CC(CC(C3)C1)C2)OC12CC3CC(CC(C3)C1)C2`, for which the inhibition was inactive: 13.4%.

The values above are taken from PubChem BioAssay AID2751 (The Scripps Research Institute Molecular Screening Center, 2010).
